Here are results for 61 compounds from PubChem BioAssay AID1510 (The Scripps Research Institute Molecular Screening Center, 2009).

Sequences of proteins named here, by UniProt entry; tags and fusion partners are left off. A change or cut given only in a name is not applied to a line headed by its entry.
UniProt O95977: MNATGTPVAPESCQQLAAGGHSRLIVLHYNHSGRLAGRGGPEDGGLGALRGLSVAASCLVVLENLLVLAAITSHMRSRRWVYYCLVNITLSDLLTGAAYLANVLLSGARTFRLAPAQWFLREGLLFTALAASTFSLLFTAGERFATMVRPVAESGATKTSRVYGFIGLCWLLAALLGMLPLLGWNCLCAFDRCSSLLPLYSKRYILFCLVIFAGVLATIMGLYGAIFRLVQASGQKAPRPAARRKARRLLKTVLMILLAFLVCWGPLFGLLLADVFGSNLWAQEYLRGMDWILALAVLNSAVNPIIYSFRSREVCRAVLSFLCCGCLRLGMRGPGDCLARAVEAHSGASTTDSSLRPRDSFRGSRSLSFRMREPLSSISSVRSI

The entries are a selection whose mix differs from that of the whole data set. Active and inactive are the calls of the source. No stated cut-off is given here; in the data, active means inhibition above about 29%; inactive means the rest.

The target in the assay is Sphingosine 1-phosphate receptor 4 (Homo sapiens) (UniProt O95977). Put plainly: S1P4 receptor antagonists, primary screen, cell-based (AID 1510).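 Further: 0% = wells stimulated with agonist and 100% = vehicle wells without agonist.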 As to conditions: S1P4-expressing cells, antagonist mode, reporter read-out; at 4.98 µM; stronger effect = higher value.
For orientation: inhibition means the relative decrease from the control value, in per cent. As to `COP1(=S)c2c(C)nn(CCC#N)c2N=C(c2ccc(F)cc2)N1C` (stereo unspecified), the inhibition was inactive: -17.9%.

Regarding `O=C(COc1ccccc1)OC1CN2CCC1CC2` (stereo unspecified), the inhibition was inactive: -1.84%.

Regarding `CCOC(=O)c1ccc(NC(=O)C(C)(CCl)SC)cc1` (stereo unspecified), the inhibition was inactive: 8.69%.

For the compound `CCC(C)N(CC(C)C)C(=S)SC(NC(C)=O)C(Cl)(Cl)Cl` (stereo unspecified), the inhibition was inactive: -2.16%.

As to `CCOC(=O)Nc1ccc([As](=O)(O)O)c(O)c1`, the inhibition is inactive: -3.14%.

With `Cc1cc(SC(NC(=O)c2ccccc2)C(Cl)(Cl)Cl)nc(C(C)C)n1` (stereo unspecified), the inhibition was inactive: -0.23%.

For `CCOC(=O)Nc1cccc([As](=O)(O)O)c1`, the inhibition was inactive: 3.95%.

On to `O=P(Nc1ccccn1)(c1cccc2ccccc12)c1cccc2ccccc12`, for which the inhibition is inactive: 6.54%.

As to `Cc1cc(SC(NC=O)C(Cl)(Cl)Cl)ncn1` (stereo unspecified), the inhibition was inactive: 0.45%.

Consider `O=[N+]([O-])c1ccc(Nc2ccc(Oc3ccc([N+](=O)[O-])cc3[N+](=O)[O-])cc2)c([N+](=O)[O-])c1`, for which the inhibition is inactive: 6.96%.

In the case of `C[As](=O)(O)c1cccc(C(=O)O)c1`, the inhibition was inactive: 0.28%.

In the case of `O=[As](O)(c1ccc(O)cc1)c1ccccc1O`, the inhibition was inactive: -0.67%.

Regarding `Cc1ccc(OP(=O)(Nc2ccc([N+](=O)[O-])cn2)Oc2ccc(C)cc2)cc1`, the inhibition was inactive: 4.95%.

Consider `Cc1ccc2nc3c(c(C)c2c1)CC(C(Cl)Cl)S3` (stereo unspecified), for which the inhibition is inactive: 3.83%.

For the compound `ClCCSc1nnc(-c2cccnc2)o1`, the inhibition was inactive: 6.44%.

As for `CC(C)c1ccc(OP(=O)(Nc2ccccn2)Oc2ccccc2F)cc1` (stereo unspecified), the inhibition was inactive: 1.22%.

For the compound `O=[N+]([O-])c1cc([N+](=O)[O-])c(-c2ccn[nH]2)s1`, the inhibition was inactive: -14.1%.

On to `CC(C)NC(=O)NP(=O)(Oc1ccccc1)Oc1ccccc1`, for which the inhibition is inactive: 2.08%.

Take `CCN(CC)C(=S)SC(NC=O)C(Cl)(Cl)Cl` (stereo unspecified): the inhibition was inactive: -8.39%.

For `Cc1c2c(nc3ccccc13)SC(C(Cl)Cl)C2` (stereo unspecified), the inhibition is inactive: -13.7%.

On to `Cc1cc(=O)[nH]c(N[N+](=O)[O-])n1`, for which the inhibition was inactive: -2.44%.

With `O=C(OC1CN2CCC1CC2)C12CC3CC(CC(C3)C1)C2` (stereo unspecified), the inhibition is inactive: -6.64%.

As for `COc1cc(I)ccc1[As](=O)(O)O`, the inhibition is inactive: 1.69%.

For `COc1ccc2nc(NP(=O)(c3ccccc3)c3ccccc3)sc2c1`, the inhibition is inactive: -10.7%.

Turning to `COc1ccc(N/C(=N/P(=O)(N2CCOCC2)N2CCOCC2)N2CCOCC2)cc1`, the inhibition is inactive: 20.1%.

With `O=C(OC1CN2CCC1CC2)c1ccc(Cl)cc1` (stereo unspecified), the inhibition was inactive: 2.87%.

Consider `O=[As](O)(O)c1cccnc1`, for which the inhibition was inactive: 7.58%.

As for `COc1cc(C(=O)NCC2(N3CCOCC3)CCCCC2)cc(Cl)c1OC(C)C`, the inhibition is inactive: 9.88%.

Take `Cc1cccc(OCC(=O)OC2CN3CCC2CC3)c1` (stereo unspecified): the inhibition is inactive: -1.14%.

Consider `O=[As](O)(c1cccc(O)c1)c1cccc(O)c1`, for which the inhibition was inactive: -5.26%.

For `Nc1cccc2c([As](=O)(O)O)cccc12`, the inhibition is inactive: -9.83%.

With `Cc1ccc(NCCc2c([N+](=O)[O-])cc([N+](=O)[O-])cc2[N+](=O)[O-])cc1`, the inhibition is inactive: -3.69%.

With `CCCOP(=S)(Nc1nc(N)cc(=O)[nH]1)OCCC`, the inhibition is inactive: 9.09%.

As for `CCOP(=O)(Nc1cccc2ccccc12)OCC`, the inhibition is inactive: -8.43%.

With `COc1cc(C2NCCC3(OCCO3)C2(C)C)cc(OC)c1OC` (stereo unspecified), the inhibition was inactive: -20%.

With `O=P(Nc1nccs1)(Oc1ccccc1)Oc1ccccc1`, the inhibition was inactive: -3.71%.

Regarding `O=P(Nc1nccs1)(c1ccccc1)c1nc2ccccc2s1` (stereo unspecified), the inhibition is inactive: -0.6%.

In the case of `CCOP1(=S)c2c(C)nn(CCC#N)c2N=C(c2ccccc2F)N1C` (stereo unspecified), the inhibition is inactive: 6.27%.

Regarding `CS(=O)(=O)c1cc([N+](=O)[O-])c2no[n+]([O-])c2c1`, the inhibition is inactive: -5.3%.

Regarding `Nc1ccccc1[As](=O)(O)c1ccccc1`, the inhibition was inactive: -2.97%.

For `O=C(O)COc1ccc([As](=O)(O)O)cc1[N+](=O)[O-]`, the inhibition was inactive: 5.63%.

As for `CCOP1(=S)c2c(C)nn(CCC#N)c2N=C(c2ccc(F)cc2)N1C` (stereo unspecified), the inhibition was inactive: 1.55%.

`O=[N+]([O-])c1ccc2c(c1)nnn2O`: the inhibition is inactive: 10.6%.

Regarding `CC1CCC(C(C)C)C(OP(=O)(Nc2ccccn2)c2ccccc2)C1` (stereo unspecified), the inhibition was inactive: -9.55%.

`Cc1nn(-c2ccccc2)c2c1P(=O)(N1CCOCC1)N(C)C(c1ccccc1)=N2` (stereo unspecified): the inhibition is inactive: -15.8%.

As for `CN(C)C1(CNC(=O)c2ccc(S(C)(=O)=O)cc2)CCCCC1`, the inhibition is inactive: -18.8%.

Turning to `O=C(/C=C/c1ccccc1)OC1CN2CCC1CC2` (stereo unspecified), the inhibition was inactive: -7.21%.

For `O=P1(Nc2ncccn2)COc2ccccc2OC1`, the inhibition was inactive: -16%.

Turning to `Nc1cccc([As](=O)(O)c2ccccc2)c1`, the inhibition was inactive: -3.27%.

Regarding `O=[As](O)(c1cccs1)c1cccs1`, the inhibition is inactive: -9.9%.

`Cc1ccc(OCC(=O)OC2CN3CCC2CC3)cc1` (stereo unspecified): the inhibition was inactive: -19%.

For `O=P1(Nc2ccc(Br)cn2)COc2ccccc2OC1`, the inhibition is inactive: -3.66%.

With `O=P1(Nc2ccccn2)COc2ccccc2OC1`, the inhibition was inactive: 5.64%.

Consider `CCOP(=O)(Nc1ccc(C)cn1)OCC`, for which the inhibition is inactive: -9.78%.

In the case of `CC(C)(C)C(=O)NC(Sc1ncccn1)C(Cl)(Cl)Cl` (stereo unspecified), the inhibition was inactive: -0.42%.

For `Clc1n[nH]nc1-c1nn[nH][15n]1`, the inhibition was inactive: -7%.

Regarding `CC(C)/C=N\N=C(\N)N[N+](=O)[O-]`, the inhibition is inactive: -2.85%.

As to `CC1(CBr)Cn2c(nc3ccccc3c2=O)S1` (stereo unspecified), the inhibition is inactive: -20.6%.

As for `O=[As](O)(c1ccccc1Br)c1ccccc1Br`, the inhibition was inactive: -9.38%.

Take `CC(C)C(=O)NC(Sc1ccccc1)C(Cl)(Cl)Cl` (stereo unspecified): the inhibition is inactive: -15.8%.

As for `O=P(Nc1nccs1)(c1ccccc1)c1ccccc1`, the inhibition is inactive: 4.77%.
